# Measurements as given in patent US6969702B2, “Compounds and methods for increasing neurogenesis” (priority 2002, dated 2005).
# What was measured:
# [1] = system: NFAT-Luciferace reporter (Ca^2+); conditions: Table 4; 15 nM; 24 hours after induction
# [2] = system: mouse adult neural stem cells; test: ATP-assay: proliferation (ATP levels) of neurosphere-derived cells; conditions: Table 4; 100 nM
smiles,measurement,setting,value
CC(C)C[C@H](NC(=O)CNC(=O)[C@H](C)NC(=O)[C@H](CC(C)C)NC(=O)[C@H](CCCNC(=N)N)NC(=O)[C@H](Cc1c[nH]cn1)NC(=O)[C@@H](NC(=O)[C@@H](N)C(C)C)[C@@H](C)O)C(=O)N[C@@H](CC(C)C)C(=O)N[C@@H](CO)C(=O)N[C@@H](CCCNC(=N)N)C(=O)N[C@@H](CO)C(=O)NCC(=O)NCC(=O)N[C@H](C(=O)N[C@H](C(=O)N[C@@H](CCCCN)C(=O)N[C@@H](CC(N)=O)C(=O)N[C@@H](CC(N)=O)C(=O)N[C@@H](Cc1ccccc1)C(=O)N[C@H](C(=O)N1CCC[C@H]1C(=O)N[C@H](C(=O)N[C@@H](CC(N)=O)C(=O)N[C@H](C(=O)NCC(=O)N[C@@H](CO)C(=O)N[C@@H](CCCCN)C(=O)N[C@@H](C)C(=O)N[C@@H](Cc1ccccc1)C(N)=O)C(C)C)[C@@H](C)O)C(C)C)C(C)C)C(C)C [CGRP (8-37)],NFAT Luciferace units,[1],28.3 ± 1.1 Luciferace units
same,ATP (nM ATP/well),[2],10.4 ± 0.5 nM ATP/well
